The values below come from patent US7683077B2, “Piperidine derivative” (Ajinomoto Co., Inc., priority 2003, dated 2010).

Amino acid sequences for entries named in this document (tags omitted). Residues count along the entry.
UniProt P34969, 1-445 isoform 2: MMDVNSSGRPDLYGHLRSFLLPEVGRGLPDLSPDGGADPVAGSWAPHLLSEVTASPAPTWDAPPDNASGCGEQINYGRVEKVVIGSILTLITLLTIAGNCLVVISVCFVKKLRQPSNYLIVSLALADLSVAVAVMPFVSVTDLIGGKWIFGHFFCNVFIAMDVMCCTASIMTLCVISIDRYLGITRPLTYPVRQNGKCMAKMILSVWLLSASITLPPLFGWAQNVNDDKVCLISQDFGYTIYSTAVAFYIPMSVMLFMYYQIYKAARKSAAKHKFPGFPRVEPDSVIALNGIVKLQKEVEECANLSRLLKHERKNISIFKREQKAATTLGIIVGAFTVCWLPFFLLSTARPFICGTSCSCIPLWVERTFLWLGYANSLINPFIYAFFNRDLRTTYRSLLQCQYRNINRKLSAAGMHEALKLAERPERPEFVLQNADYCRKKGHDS

For one test, the target named is Human 5-HT7a receptor (Homo sapiens, UniProt P34969). Put plainly: Receptor binding assay (RBA) using 5HT-7 expression cells. Particulars: displacement of 2-[125I]-(+)-iodo-lysergic acid diethylamide, membranes of human 5-HT7a CHO-K1 cells.
The target of another test is Human 5HT-7 (Homo sapiens, UniProt P34969). Put plainly: Evaluation of 5HT-7 agonist activity using 5HT-7 expression cells (cAMP). The conditions noted are these: cAMP in h5HT7-C2 CHO-K1 cells, tested form: trifluoroacetate. It is filed as cell-based.

SMILES strings stand for the structures.

For orientation: pIC50 means −log10 of the IC50, conventionally taken in molar units. Low readings indicate a large IC50, high ones a small IC50. One may read the EC50 as the concentration at which the effect is half-maximal. In turn, `CCCN1CCC(=C(c2cccc(Cl)c2)c2cc(OC)ccc2OC)CC1` displayed a negative logarithm of the IC50 (pIC50) on Human 5-HT7a receptor (tested form: trifluoroacetate) of 8.3. For the same compound, the concentration for a half-maximal effect (EC50) at Human 5HT-7 (10 μM serotonin = 100%) turned out to be 23 nM. Also, the “agonist action compared with serotonin (FIG. 1)” value on Human 5HT-7 is reported as “stronger than that of serotonin”.
At Human 5-HT7a receptor (tested form: HCl), `COc1ccc(OC)c(S(=O)(=O)NCCN2CCC(=C(c3cccc(Cl)c3)c3ccccc3OC)CC2)c1` registered a pIC50 of 8.2.
In the case of `COc1ccccc1C(=C1CCN(CCNS(=O)(=O)c2cccs2)CC1)c1cccc(Cl)c1`, the pIC50 at Human 5-HT7a receptor (tested form: hydrochloride) worked out at 7.4.
`COc1ccccc1C(=C1CCN(CCNS(=O)(=O)c2ccc(F)cc2F)CC1)c1cccc(Cl)c1`: the pIC50 on Human 5-HT7a receptor (tested form: hydrochloride) turned out to be 7.4.
The compound `COc1ccccc1C(=C1CCN(CCNS(=O)(=O)c2ccccc2Br)CC1)c1cccc(Cl)c1` had a pIC50 at Human 5-HT7a receptor (tested form: HCl) of 7.8.
